Earlier results as cited in patent publication US7361681B2, “Method of treating amytrophic lateral sclerosis using melatonin” (SYGNIS Bioscience GmbH & Co. KG, priority 2003, dated 2008).

Tested on: ALS
Conditions: Rowland New Engl J Med 2001; cited from earlier work

Nc1nc2ccc(OC(F)(F)F)cc2s1 [RILUZOLE®, 2-amino-6-(trifluoromethoxy) benzothiazole]
significance with respect to survival time: borderline significance
